{"sequences": {"note": "Amino acid sequences for entries named in this document (tags omitted). A change or cut given only in a name is not applied to a line headed by its entry.", "UniProt P50052": "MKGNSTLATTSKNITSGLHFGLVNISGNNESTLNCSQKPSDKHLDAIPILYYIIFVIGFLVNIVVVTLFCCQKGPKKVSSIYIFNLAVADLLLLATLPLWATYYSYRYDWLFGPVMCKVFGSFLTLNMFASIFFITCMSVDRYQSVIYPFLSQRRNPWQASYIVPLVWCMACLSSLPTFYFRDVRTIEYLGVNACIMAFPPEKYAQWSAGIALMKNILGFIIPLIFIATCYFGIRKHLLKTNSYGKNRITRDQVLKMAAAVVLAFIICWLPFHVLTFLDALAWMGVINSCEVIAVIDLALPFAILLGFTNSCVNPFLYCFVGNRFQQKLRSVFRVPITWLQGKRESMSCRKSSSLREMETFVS"}, "source": "ChEMBL document CHEMBL1127303", "about": "“Triazolinone biphenylsulfonamides as angiotensin II receptor antagonists with high affinity for both the AT1 and AT2 subtypes” (J Med Chem, 1994)", "target": "Angiotensin II receptor (Homo sapiens) (UniProt P30556+P50052)", "assay": "Ratio of Ki value of AT2/AT1 receptor was determined", "assay_type": "protein assay"}
{"smiles": "CCCCc1nc2ccc(NC(=O)NC3CCCCC3)cc2n1Cc1ccc(-c2ccccc2C(=O)O)cc1", "values": [{"measurement": "Ratio", "result": 17}]}
